Reference: patent publication US11820832B2, “Bispecific HER2 and CD3 binding molecules” (MEMORIAL SLOAN KETTERING CANCER CENTER, priority 2014, dated 2023)
Entries after “also recorded” stand apart in the source; their conditions may differ.

What was measured:
[1] = test system: HCC1954 breast cancer cells mixed with PBMC; assay: Xenograft, subcutaneous tumor plus subcutaneous effector cells; type: in vivo, DKO mice; conditions: s.c. HCC1954 mixed with PBMC; 4 or 6 injections
[2] = test system: HCC1954 breast cancer xenografts; assay: Xenograft, subcutaneous tumor plus intravenous effector cells; type: in vivo, DKO mice; conditions: s.c. HCC1954; i.v. PBMC once a week for 3 weeks; i.v. antibody twice a week for 3 weeks
[3] = test system: HeLa cervical carcinoma cells; assay: Cell proliferation assay (WST-8); type: cell-based, human; conditions: 10 nM kinase inhibitors, 10 μg/mL antibodies
Experimental: (§1) Cell proliferation was determined using an ELISA plate reader and the WST-8 kit (Dojindo technologies) following the manufacturer's instructions and using the formula: % survival rate=(Sample-Background)/(Negative control-Background). Lapatinib (MSKCC pharmacy) was ground using a mortar and pestle and suspended in DMSO as previously described. To determine statistical significance, the results were analyzed using one-way ANOVA using Prism 6.0.
(§2) For cell proliferation assays, 5,000 tumor cells were plated using RPMI-1640 supplemented with 10% FBS in a 96 well plate for 36 hours before being treated with lapatinib or the antibodies at the specified concentrations. Cell proliferation was determined using an ELISA plate reader and the WST-8 kit (Dojindo technologies) following the manufacturer's instructions and using the formula: % survival rate=(Sample-Background)/(Negative control-Background). Lapatinib (Memorial Sloan Kettering Cancer Center pharmacy) was ground using a mortar and pestle and suspended in DMSO as previously described (Chen et al., 2012, Molecular cancer therapeutics 11:660-669). To determine statistical significance, the results were analyzed using one-way ANOVA using Prism 6.0.
(§3) For tumor cell proliferation, 5,000 tumor cells were plated using RPMI-1640 supplemented with 10% fetal bovine serum (“FBS”) in a 96 well plate for 36 hours before being treated with—kinase inhibitors or the antibodies at the specified concentration. Cell proliferation was determined using the cell counting WST-8 kit (Dojindo technologies) following the manufacturer's instructions and using the formula: % survival rate=(Sample-Background)/(Negative control-Background). Lapatinib was ground using a mortar and pestle and suspended in DMSO as previously described (Chen et al., Molecular cancer therapeutics 2012; 11:660-9). To determine statistical significance, the results were analyzed using one-way ANOVA using Prism 6.0.

SCCHN cell line PCI-30 = assay: Cell proliferation assay (WST-8); type: cell-based, human; conditions: 10 nM kinase inhibitors, 10 μg/mL antibodies
Experimental: as §1, §2, §3

U2OS osteosarcoma cells = assay: Cell proliferation assay (WST-8); type: cell-based, human; conditions: 10 nM kinase inhibitors, 10 μg/mL antibodies
Experimental: as §1, §2, §3

[4] = test system: HER2(+) SCCHN cell line PCI-13; assay: Blocking of HER2-BsAb T-cell cytotoxicity by trastuzumab or huOKT3; type: cell-based, human; conditions: 0.1 μg/mL HER2-BsAb with 10 μg/mL blocking antibody
Experimental: Cell cytotoxicity was assayed by ^51Cr release as previously described (Xu et al., Cancer immunology research 2015; 3:266-77), and EC50 was calculated using SigmaPlot software. Effector PBMC cells were purified from buffy coats purchased from the New York Blood Center. ATCs were first purified from human PBMC using Pan T cell isolation kit, and then activated and expanded for approximately 14 days with CD3/CD28 Dynabeads (Invitrogen) according to manufacturer's protocol.

[5] = test system: HER2-positive breast carcinoma cell line, AU565; assay: FACS binding to tumor cells; set-up: species or system human; conditions: 5 μg/mL primary antibody
[6] = test system: MCF7 breast cancer cells mixed with PBMC; assay: Xenograft, subcutaneous tumor plus subcutaneous effector cells; type: in vivo, DKO mice; conditions: s.c. MCF7 mixed with PBMC; antibody i.v. twice a week for 2 or 3 weeks
[7] = test system: gastric cancer PDX (EK), IHC 2+; assay: Patient-derived xenograft, s.c. tumor plus i.v. PBMC; type: in vivo, DKO mice; conditions: i.v. PBMC once a week for 3 weeks, 100 μg i.v. twice per week for 5 weeks
HER2-positive cells = assay: Blocking of HER2-BsAb induced T cell cytotoxicity; type: cell-based, human; conditions: HER2-positive cells pre-incubated with blocking antibody
Experimental: The ^51Cr release assay was performed with effector T cells cultured in vitro in the presence of anti-CD3 and anti-CD28 for about 14 days. All target tumor cells were harvested with 2 mM EDTA in PBS, labeled with ^51Cr (Amersham, Arlington Height, Ill.) at 100 μCi/106 cells at 37° C. for 1 h. 5000 target cells/well were mixed with 50,000 effector cells (E:T=10:1) and BsAb antibodies in 96-well polystyrene round-bottom plates (BD Biosciences) to a final volume of 250 μl/well. The plates were incubated at 37° C. for 4 h. The released ^51Cr in supernatant was counted in a γ-counter (Packed Instrument, Downers Grove, Ill.). Percentage of specific release was calculated using the formula: (experimental cpm−background cpm)/(total cpm−background cpm)×100%, where cpm represented counts per minute of ^51Cr released. Total release was assessed by lysis with 10% SDS (Sigma, St Louis, Mo.), and background release was measured in the absence of effector cells. EC50 was calculated using SigmaPlot software.
Cell cytotoxicity was assayed by ^51Cr release as previously described (Xu et al., 2015, Cancer Immunol Res 3:266-77), and EC50 was calculated using SigmaPlot software. Effector T cells were purified from human PBMC using Pan T cell isolation kit (Miltenyi Biotec), and then activated and expanded with CD3/CD28 Dynabeads (Invitrogen) according to the manufacturer's protocol.

Row | Substance | tumor growth [1] | tumor growth [2] | sensitivity of cells in proliferation assay [3] | sensitivity of cells in proliferation assay (SCCHN cell line PCI-30) | sensitivity of cells in proliferation assay (U2OS osteosarcoma cells) | blocking of HER2-BsAb mediated T-cell cytotoxicity [4] | binding to AU565 by FACS [5] | tumor progression [6] | tumor growth [7] | blocking of the ability of HER2-BsAb to induce T cell cytotoxicity (HER2-positive cells)
1 | HER2-C825: control BsAb lacking CD3 targeting; C825 is a murine scFv with high affinity for DOTA-metal complexes | almost had no effect | only modest effects | – | – | – | – | – | – | – | –
2 | cetuximab | – | – | pan-resistant | resistant | resistant | – | – | – | – | –
3 | trastuzumab | almost had no effect | only modest effects | pan-resistant | resistant | resistant | prevented | comparable binding | ineffective | did not suppress tumor growth | blocked; also recorded: prevented
